From patent US20060035869A1 (published 2006)

By UniProt entry, the sequences of proteins in these tests, tags left out. Where a name states a change or a piece, a line headed by the entry shows the natural chain unless it says otherwise.
UniProt P34914: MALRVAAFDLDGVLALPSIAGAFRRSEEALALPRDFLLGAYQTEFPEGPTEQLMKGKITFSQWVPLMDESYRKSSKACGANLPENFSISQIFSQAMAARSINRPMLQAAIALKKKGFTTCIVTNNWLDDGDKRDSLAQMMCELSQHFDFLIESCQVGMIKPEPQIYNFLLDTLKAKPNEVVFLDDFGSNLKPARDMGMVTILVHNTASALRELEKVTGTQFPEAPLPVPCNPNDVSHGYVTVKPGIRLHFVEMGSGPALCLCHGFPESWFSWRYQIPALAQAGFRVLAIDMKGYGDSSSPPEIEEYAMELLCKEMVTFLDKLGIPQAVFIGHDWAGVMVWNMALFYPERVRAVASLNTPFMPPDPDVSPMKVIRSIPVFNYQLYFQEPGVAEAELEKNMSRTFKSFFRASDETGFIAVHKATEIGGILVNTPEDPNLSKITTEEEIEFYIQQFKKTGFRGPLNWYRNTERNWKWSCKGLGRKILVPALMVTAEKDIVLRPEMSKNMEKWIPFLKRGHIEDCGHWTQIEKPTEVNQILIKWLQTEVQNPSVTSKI
UniProt P07099: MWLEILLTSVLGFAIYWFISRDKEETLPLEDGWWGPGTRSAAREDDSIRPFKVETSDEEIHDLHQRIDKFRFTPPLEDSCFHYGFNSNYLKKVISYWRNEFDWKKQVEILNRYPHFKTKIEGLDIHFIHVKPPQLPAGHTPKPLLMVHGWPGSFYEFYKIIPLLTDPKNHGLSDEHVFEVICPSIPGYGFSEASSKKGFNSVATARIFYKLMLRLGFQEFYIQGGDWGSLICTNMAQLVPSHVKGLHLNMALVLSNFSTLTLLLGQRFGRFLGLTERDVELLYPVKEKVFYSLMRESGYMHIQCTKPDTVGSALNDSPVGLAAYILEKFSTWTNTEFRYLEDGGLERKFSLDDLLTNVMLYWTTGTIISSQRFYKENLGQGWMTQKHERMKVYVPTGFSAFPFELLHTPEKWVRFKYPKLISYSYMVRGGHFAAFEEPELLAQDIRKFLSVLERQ

How the values were obtained:
mouse sEH = mouse sEH (Mus musculus, UniProt P34914); assay: Inhibition of recombinant mouse soluble EH, spectrophotometric NEP2C assay; format: biochemical; conditions: FIG. 1
microsomal EH = microsomal EH (Homo sapiens, UniProt P07099); assay: biochemical; conditions: read-out: % Inhibition by 100 μM of 2

O=C(NC1CCCCC1)NC1CCCCC1 [Compound 2, N,N′-dicyclohexylurea]
effect of time on the inhibition of mouse sEH (mouse sEH): stable over time
% Inhibition by 100 μM of 2 (pepsin): 0.1 ± 0.1%
inhibition at 100 µM (microsomal EH): 0.5 ± 0.8%
